Results: ChEMBL document CHEMBL1144926, “Structure-activity relationships of dynorphin a analogues modified in the address sequence” (J Med Chem, 2003)

Sequences of proteins named here, by UniProt entry; tags and fusion partners are left off. A change or cut given only in a name is not applied to a line headed by its entry.
UniProt P41145: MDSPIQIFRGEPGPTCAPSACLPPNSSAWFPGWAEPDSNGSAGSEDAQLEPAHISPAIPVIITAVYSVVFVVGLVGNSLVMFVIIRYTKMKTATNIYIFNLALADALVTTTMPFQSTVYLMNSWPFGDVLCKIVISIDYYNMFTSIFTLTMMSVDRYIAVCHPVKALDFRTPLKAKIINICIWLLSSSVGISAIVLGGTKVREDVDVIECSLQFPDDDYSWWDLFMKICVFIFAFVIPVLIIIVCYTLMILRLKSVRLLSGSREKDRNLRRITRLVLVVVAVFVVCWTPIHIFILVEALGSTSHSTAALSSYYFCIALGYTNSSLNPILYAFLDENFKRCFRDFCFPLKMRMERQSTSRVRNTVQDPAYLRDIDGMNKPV
UniProt P41143, whole entry: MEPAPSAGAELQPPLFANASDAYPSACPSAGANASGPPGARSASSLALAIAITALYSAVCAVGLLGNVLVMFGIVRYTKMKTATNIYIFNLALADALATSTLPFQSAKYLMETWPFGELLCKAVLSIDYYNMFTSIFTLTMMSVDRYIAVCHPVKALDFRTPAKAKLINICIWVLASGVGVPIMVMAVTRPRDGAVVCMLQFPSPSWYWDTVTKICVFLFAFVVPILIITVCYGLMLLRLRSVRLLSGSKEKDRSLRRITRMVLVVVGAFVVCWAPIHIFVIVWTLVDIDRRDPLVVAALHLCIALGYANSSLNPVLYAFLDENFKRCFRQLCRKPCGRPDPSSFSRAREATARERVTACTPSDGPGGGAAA

Columns and labels:
[1] = biological target: Kappa-type opioid receptor (Homo sapiens, UniProt P41145); test: biochemical; type: cell-based, CHO
[2] = biological target: Delta-type opioid receptor (Homo sapiens, UniProt P41143); test: In vitro binding affinity to human Opioid receptor delta 1 on CHO cell membranes using [3H]diprenorphine displacement.

In the case of `CC[C@H](C)[C@H](NC(=O)[C@H](CCCN=C(N)N)NC(=O)[C@H](CCCN=C(N)N)NC(=O)[C@H](CC(C)C)NC(=O)[C@H](Cc1ccccc1)NC(=O)CNC(=O)CNC(=O)[C@@H](N)Cc1ccc(O)cc1)C(=O)O`, the Ki [1] is reported as 4.6 nM and the Ki [2] is reported as 8.5 nM.
